Here are results for 1 molecule from ChEMBL document CHEMBL4000206, “An efficient anticoagulant candidate: Characterization, synthesis and in vivo study of a fondaparinux analogue Rrt1.17” (Eur J Med Chem, 2017).

Amino acid sequences for entries named in this document (tags omitted).
UniProt P00742, whole entry: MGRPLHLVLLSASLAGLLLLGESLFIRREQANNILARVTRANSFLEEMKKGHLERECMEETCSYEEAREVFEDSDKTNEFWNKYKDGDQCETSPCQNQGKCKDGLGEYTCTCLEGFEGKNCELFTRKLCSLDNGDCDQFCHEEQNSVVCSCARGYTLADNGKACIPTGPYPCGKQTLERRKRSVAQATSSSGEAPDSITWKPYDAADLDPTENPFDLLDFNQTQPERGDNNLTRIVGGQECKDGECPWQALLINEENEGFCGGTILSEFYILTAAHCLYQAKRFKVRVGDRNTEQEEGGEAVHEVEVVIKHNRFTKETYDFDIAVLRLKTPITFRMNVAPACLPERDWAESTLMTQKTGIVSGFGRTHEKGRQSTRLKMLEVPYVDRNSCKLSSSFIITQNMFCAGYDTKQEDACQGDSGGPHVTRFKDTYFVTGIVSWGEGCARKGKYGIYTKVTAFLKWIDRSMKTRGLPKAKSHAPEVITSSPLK

For the experiment, the target named is Coagulation factor X (Homo sapiens, UniProt P00742). Briefly: Inhibition of factor 10a (unknown origin) using S-2765 as substrate assessed as compound potency preincubated with AT-3 followed by factor 10a addition for 60 secs and subsequent addition of substrate for 60 secs measured after 4 mins.

With `CC.O=C(O)[C@H]1O[C@@H](O[C@H]2[C@H](OS(=O)(=O)O)[C@@H](NS(=O)(=O)O)[C@H](O[C@H]3[C@H](O)[C@@H](OS(=O)(=O)O)[C@H](O[C@@H]4[C@H](O)[C@@H](CO)O[C@@H]4CS(=O)(=O)O)O[C@H]3C(=O)O)O[C@@H]2COS(=O)(=O)O)[C@H](O)[C@@H](O)[C@@H]1O[C@H]1O[C@H](COS(=O)(=O)O)[C@@H](O)[C@H](O)[C@H]1NS(=O)(=O)O`, the INH came out at 135 IU/mg.
